One assay addresses CNS nicotinic receptors. The assay can be described thus: Determination of binding to relevant receptor sites. Conditions: inhibition constant calculated from IC50 by the method of Cheng et al. The method, then: Determination of Binding to Relevant Receptor Sites
Binding of the compounds to relevant receptor sites was determined in accordance with the techniques described in U.S. Pat. No. 5,597,919 to Dull et al. Inhibition constants (Ki values), reported in nM, were calculated from the IC50 values using the method of Cheng et al., Biochem, Pharmacol. 22:3099 (1973).

The next assay relates to Rat brain synaptosomes. The assay can be described thus: Determination of dopamine release / neurotransmitter release from brain synaptosomes. In kind it is cell-based. The conditions noted are these: amount released relative to (S)-(-)-nicotine on a percentage basis. The method, then:
Determination of Dopamine Release
Dopamine release was measured using the techniques described in U.S. Pat. No. 5,597,919 to Dull et al. Release is expressed as a percentage of release obtained with a concentration of (S)-(−)-nicotine resulting in maximal effects. Reported EC50 values are expressed in nM, and Emax values represent the amount released relative to (S)-(−)-nicotine on a percentage basis.
Neurotransmitter Release from Brain Synaptosomes
Neurotransmitter release was measured using techniques similar to those previously published (Bencherif M, et al. JPET 279: 1413-1421, 1996).
Rat brain synaptosomes were prepared as follows: Female Sprague Dawley rats (100-200 g) were killed by decapitation after anesthesia with 70% CO2. Brains are dissected, and hippocampus, striatum, and thalamus isolated, and homogenized in 0.32 M sucrose containing 5 mM HEPES pH 7.4 using a glass/glass homogenizer. The tissue was then centrifuged for 1000×g for 10 minutes and the pellet discarded. The supernatant was centrifuged at 12000×g for 20 minutes. […] The perfusate was collected directly into scintillation vials and released radioactivity was quantified using conventional liquid scintillation techniques. Release of neurotransmitter was determined in the presence of 10 uM of various ligands and was expressed as a percentage of release obtained with a concentration of 10 uM (S)-(−)-nicotine.

One may read the Ki as the dissociation constant of the complex between target and ligand, obtained from inhibition or displacement. For the substance “(1S,4S)-(5-pyrimidinyl)-2,5-diazabicyclo[2.2.1]heptane hemigalactarate [Sample No. 3]”, the Ki at CNS nicotinic receptors is 6 nM.
As for “(1S,4S)-(5-(4-methoxyphenoxy)-3-pyridyl)-2,5-diazabicyclo[2.2.1]heptane hemigalactarate [Sample No. 2]”, at CNS nicotinic receptors, the Ki is 13 nM. For the same substance, in the assay on Rat brain synaptosomes, the “Emax value for dopamine release” value is given as 24%.
Take “(1S,4S)-(6-chloro-3-pyridazinyl)-2,5-diazabicyclo[2.2.1]heptane hemigalactarate [Sample No. 4]”: the Ki at CNS nicotinic receptors is 43 nM. Moreover, the “Emax value for dopamine release” value in the assay with Rat brain synaptosomes amounted to 128%.

The record behind these values is patent US6440970B1, “Pharmaceutical compositions and methods for use” (Targacept, Inc., priority 2000, dated 2002).
